Test results reported in publication PMC4639559 (2015).
pIC50: −log10 of the molar value.

By UniProt entry, the sequences of proteins in these tests, tags left out. Residues count along the entry.
UniProt P28335, 33-458: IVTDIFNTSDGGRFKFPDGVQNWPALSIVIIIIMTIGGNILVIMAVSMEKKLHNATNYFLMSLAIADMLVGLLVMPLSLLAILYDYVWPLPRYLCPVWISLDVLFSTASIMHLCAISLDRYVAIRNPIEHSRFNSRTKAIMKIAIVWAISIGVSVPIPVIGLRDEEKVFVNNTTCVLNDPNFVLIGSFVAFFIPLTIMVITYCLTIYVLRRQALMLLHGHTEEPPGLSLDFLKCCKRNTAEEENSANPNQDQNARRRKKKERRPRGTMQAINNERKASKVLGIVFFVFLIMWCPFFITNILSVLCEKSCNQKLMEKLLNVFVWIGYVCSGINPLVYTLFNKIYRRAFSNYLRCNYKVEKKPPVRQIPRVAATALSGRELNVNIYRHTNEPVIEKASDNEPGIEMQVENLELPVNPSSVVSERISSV

Biological target: 5-HT2Cedited receptor (h) (Homo sapiens, UniProt P28335)
Assay: Functional assay
Assay type: cell-based
Conditions: read-out: Reference antagonist (IC50)

## Cn1ccc2cc3c(cc21)CCN3C(=O)Nc1cccnc1 [SB206553, 5-methyl-1-(3-pyridylcarbamoyl)-1,2,3,5-tetrahydropyrrolo[2,3-f]indole]
  pIC50: 7.57
